{
  "source": "ChEMBL document CHEMBL1152837",
  "about": "“Ligand binding to nucleic acids and proteins: Does selectivity increase with strength?” (Eur J Med Chem, 2008)",
  "format_in_all_cases": "cell membranes",
  "key": {"[1]": {"organism": "Rattus norvegicus", "test": "Ratio of Ki for kappa opioid receptor in rat brain membrane to Ki for mu opioid receptor in rat brain membrane"}, "[2]": {"organism": "Rattus norvegicus", "test": "Ratio of Ki for mu opioid receptor in rat brain membrane to Ki for delta opioid receptor in rat brain membrane"}, "[3]": {"organism": "Rattus norvegicus", "test": "Ratio of Ki for delta opioid receptor in rat brain membrane to Ki for mu opioid receptor in rat brain membrane"}},
  "data": [
    {"smiles": "Oc1ccc2c3c1O[C@H]1c4[nH]c5ccccc5c4C[C@@]4(O)[C@@H](C2)N(CC2CC2)CC[C@]314", "note": "[NALTRINDOLE]", "values": [
      {"measurement": "Ratio Ki", "setting": "[1]", "value": 1.1},
      {"measurement": "Ratio Ki", "setting": "[2]", "value": 120},
      {"measurement": "Ratio Ki", "setting": "[3]", "value": 0.008}
    ]}
  ]
}
